The target in this test is Glutamate carboxypeptidase 2 (Homo sapiens, UniProt Q04609). Kind of test: Inhibition of human recombinant GCP2 using N-acetyl-L-aspartyl-[3H]-L-glutamate as substrate by microplate assay. An outline of the steps: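 Radiometric enzyme assay using purified human recombinant GCPII with N-acetyl-L-aspartyl-[3H]-L-glutamate as substrate. IC50 was determined.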

Sequences of proteins named here, by UniProt entry; tags and fusion partners are left off.
UniProt Q04609, whole entry: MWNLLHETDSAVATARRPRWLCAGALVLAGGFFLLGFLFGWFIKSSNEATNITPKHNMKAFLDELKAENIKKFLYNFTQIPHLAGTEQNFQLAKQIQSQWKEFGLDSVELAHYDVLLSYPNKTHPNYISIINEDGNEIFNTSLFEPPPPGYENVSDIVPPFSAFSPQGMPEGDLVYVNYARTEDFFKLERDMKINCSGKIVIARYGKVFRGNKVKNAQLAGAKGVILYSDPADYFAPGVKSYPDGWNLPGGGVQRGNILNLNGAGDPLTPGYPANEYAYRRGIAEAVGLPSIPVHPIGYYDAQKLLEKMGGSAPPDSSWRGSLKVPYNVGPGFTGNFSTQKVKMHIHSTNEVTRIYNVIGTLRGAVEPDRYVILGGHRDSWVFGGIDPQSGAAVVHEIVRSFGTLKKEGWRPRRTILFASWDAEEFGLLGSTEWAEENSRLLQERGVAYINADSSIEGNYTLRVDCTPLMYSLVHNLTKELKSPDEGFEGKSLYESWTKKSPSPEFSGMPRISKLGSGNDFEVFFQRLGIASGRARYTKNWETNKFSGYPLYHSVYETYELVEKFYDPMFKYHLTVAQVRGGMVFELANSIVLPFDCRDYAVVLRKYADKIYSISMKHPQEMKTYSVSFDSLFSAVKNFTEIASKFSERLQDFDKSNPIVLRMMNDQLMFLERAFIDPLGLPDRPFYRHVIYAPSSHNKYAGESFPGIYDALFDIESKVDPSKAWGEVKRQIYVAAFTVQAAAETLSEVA

Molecules are shown by their SMILES.

With `O=C(O)c1cc(CS)ccc1OCc1ccccc1`, the IC50 came out at 420 nM.

These data come from ChEMBL document CHEMBL2150994, “Design, synthesis, and pharmacological evaluation of glutamate carboxypeptidase II (GCPII) inhibitors based on thioalkylbenzoic acid scaffolds” (J Med Chem, 2012).
